Two molecules from ChEMBL document CHEMBL5252509, “In depth analysis of kinase cross screening data to identify chemical starting points for inhibition of the Nek family of kinases” (Medchemcomm, 2018) can be followed below.

Protein sequences, listed by entry. Tags and fused reporters are not part of them. Lines headed by an entry give the natural chain unless they say otherwise; changes in a name come on top.
UniProt P53779: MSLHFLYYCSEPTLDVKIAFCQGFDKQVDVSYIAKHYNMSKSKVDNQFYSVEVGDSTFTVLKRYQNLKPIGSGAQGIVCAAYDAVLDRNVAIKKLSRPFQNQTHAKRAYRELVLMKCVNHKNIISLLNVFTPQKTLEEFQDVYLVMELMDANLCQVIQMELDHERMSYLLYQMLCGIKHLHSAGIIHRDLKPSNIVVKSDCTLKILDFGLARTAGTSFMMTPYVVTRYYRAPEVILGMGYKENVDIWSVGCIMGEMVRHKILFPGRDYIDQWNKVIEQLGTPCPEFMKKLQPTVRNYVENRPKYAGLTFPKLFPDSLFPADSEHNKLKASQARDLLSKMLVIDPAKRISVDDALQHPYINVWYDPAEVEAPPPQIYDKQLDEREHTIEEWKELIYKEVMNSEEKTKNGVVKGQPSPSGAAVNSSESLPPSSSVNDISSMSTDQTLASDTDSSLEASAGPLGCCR

Assay [1] has as its target T1, Eukaryotic translation initiation factor 2-alpha kinase 3 (Homo sapiens, UniProt Q9NZJ5).
T1 sequence (Q9NZJ5 whole entry): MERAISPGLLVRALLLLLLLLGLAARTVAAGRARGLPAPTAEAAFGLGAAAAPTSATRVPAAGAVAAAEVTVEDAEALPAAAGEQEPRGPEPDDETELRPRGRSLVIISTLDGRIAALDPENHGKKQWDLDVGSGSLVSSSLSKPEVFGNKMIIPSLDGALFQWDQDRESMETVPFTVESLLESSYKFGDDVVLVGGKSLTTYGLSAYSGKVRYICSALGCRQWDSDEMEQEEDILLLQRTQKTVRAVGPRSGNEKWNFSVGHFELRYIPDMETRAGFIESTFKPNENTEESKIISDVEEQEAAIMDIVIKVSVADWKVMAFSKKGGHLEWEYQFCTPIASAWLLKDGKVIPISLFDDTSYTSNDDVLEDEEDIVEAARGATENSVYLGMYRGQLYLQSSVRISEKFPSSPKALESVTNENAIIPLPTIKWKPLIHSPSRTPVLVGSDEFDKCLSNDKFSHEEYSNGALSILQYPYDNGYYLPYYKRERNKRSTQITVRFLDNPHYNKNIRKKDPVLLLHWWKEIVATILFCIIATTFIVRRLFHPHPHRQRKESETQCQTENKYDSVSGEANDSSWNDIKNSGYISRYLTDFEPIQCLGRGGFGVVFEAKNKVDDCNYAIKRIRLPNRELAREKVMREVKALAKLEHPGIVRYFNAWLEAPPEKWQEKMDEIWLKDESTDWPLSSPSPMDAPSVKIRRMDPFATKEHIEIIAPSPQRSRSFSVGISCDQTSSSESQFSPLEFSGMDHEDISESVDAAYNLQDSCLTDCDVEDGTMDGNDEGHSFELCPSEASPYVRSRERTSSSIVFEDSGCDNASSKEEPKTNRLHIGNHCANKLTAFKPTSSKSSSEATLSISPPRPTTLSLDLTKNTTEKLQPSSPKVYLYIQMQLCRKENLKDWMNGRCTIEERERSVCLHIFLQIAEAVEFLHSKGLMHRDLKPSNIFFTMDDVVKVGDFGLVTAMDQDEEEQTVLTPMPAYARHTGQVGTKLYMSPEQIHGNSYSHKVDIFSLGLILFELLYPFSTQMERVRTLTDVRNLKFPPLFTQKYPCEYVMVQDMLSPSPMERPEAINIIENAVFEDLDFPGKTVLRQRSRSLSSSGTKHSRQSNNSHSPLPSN
Put plainly: Inhibition of PERK (unknown origin).

Assay [2] addresses Mitogen-activated protein kinase 10 (Homo sapiens, UniProt P53779). Put plainly: Inhibition of JNK3 (unknown origin).

A value given as a limit tells only on which side of the number the result lay.

As a reminder, the IC50 is the concentration needed to halve the response being measured. A high value points to lower potency. For the molecule `Nc1ncc(-c2cccnc2)c2scc(-c3ccc4c(c3)CCN4C(=O)Cc3ccccc3)c12`, the IC50 in assay [1] is under 0.015 µM.

Consider `CN(C)C/C=C/C(=O)Nc1cccc(C(=O)Nc2ccc(Nc3nccc(-c4cccnc4)n3)cc2)c1`, for which the IC50 in assay [2] was 0.013 µM.
